Literature values in patent US7795302B2, “Use of compositions for treating rosacea” (The Regents of the University of Michigan, priority 2001, dated 2010).

Test system: NF-KB

Question: With `CCCCC/C=C\C/C=C\C/C=C\C/C=C\CCCCOP(=O)(F)OC` (stereo not shown) as the molecule, how does the “effect on TNF-induced NF-KB activation” value read?
Answer: inhibited
